# Assay results from publication PMC12366525, “Characterization of allosteric modulators that disrupt androgen receptor co-activator protein-protein interactions to alter transactivation–Drug leads for metastatic castration resistant prostate cancer” (SLAS discovery : advancing life sciences R & D, 2023).
# Amino acid sequences for entries named in this document (tags omitted). Residues count along the entry.
# UniProt P10275, whole entry T878A: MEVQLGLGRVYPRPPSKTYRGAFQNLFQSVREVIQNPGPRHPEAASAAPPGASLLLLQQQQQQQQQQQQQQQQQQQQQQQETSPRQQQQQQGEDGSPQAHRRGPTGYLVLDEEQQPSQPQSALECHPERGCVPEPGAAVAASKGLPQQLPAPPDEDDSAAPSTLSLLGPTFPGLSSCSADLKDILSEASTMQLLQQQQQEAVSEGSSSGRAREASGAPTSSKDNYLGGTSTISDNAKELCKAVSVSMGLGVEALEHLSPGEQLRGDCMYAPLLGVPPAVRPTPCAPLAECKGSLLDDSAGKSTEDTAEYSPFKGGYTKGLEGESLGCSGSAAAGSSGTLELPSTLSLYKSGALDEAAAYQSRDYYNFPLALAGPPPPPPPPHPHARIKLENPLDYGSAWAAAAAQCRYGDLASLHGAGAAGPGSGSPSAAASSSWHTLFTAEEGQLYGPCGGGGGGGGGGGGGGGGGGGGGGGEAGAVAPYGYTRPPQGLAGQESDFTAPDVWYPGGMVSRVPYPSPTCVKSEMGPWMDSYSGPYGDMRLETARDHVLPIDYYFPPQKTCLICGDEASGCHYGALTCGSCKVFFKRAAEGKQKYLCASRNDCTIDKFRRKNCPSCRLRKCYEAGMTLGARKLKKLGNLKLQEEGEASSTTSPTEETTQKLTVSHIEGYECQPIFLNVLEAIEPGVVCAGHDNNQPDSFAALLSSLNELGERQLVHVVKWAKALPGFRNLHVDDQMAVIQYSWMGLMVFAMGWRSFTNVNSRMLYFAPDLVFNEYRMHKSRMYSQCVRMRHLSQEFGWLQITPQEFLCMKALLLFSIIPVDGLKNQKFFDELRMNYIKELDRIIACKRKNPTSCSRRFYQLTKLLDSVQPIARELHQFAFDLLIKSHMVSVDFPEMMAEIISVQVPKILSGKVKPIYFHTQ
# UniProt P10275, 663-920 limits assumed: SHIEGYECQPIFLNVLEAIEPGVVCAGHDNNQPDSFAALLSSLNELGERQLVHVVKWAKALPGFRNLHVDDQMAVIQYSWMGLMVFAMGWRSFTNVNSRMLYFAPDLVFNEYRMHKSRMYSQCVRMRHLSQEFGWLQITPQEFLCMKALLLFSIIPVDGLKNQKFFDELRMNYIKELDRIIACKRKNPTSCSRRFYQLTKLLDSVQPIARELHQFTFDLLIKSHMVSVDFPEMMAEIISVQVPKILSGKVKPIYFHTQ
# Columns and labels:
# [1] = tested on: LNCaP cells; experiment: Prostate cancer cell line growth inhibition assay, LNCaP; conditions: read-out: LNCap GI50 (AR+); 72 h
# [2] = tested on: DU-145 cells; experiment: Prostate cancer cell line growth inhibition assay, DU-145; conditions: read-out: DU145 GI50 (AR−); 72 h
# [3] = tested on: U-2 OS cells; experiment: AR-TIF2 PPIB cell loss (Hoechst stained nuclei); conditions: 4.5 h compound exposure
# [4] = target: full length AR (Homo sapiens, UniProt P10275, T878A); experiment: PSA-6.1 luciferase reporter assay in C4–2 CRPC cells; conditions: read-out: C4–2 PSA6.1-Luc Reporter IC50; C4–2 cells; 50 nM DHT; 24 h
# [5] = tested on: 22Rv1 cells; experiment: Prostate cancer cell line growth inhibition assay, 22Rv1; conditions: read-out: 22Rv1 GI50 (AR+); 72 h
# [6] = tested on: PC-3 cells; experiment: Prostate cancer cell line growth inhibition assay, PC-3; conditions: read-out: PC3 GI50 (AR−); 72 h
# [7] = tested on: PC cell lines positive (LNCaP, C4–2, & 22Rv1 cells) or negative (PC-3 & DU-145) for AR; experiment: Prostate cancer cell line growth inhibition assays, panel statements; assay type: cell-based; conditions: 72 h
# [8] = tested on: C4–2 cells; experiment: Prostate cancer cell line growth inhibition assay, C4–2; conditions: read-out: C4–2 GI50 (AR +); 72 h
# [9] = target: AR-TIF2 PPI (Homo sapiens, UniProt P10275); experiment: AR-TIF2 PPI biosensor (PPIB) HCS assay, inhibition of DHT-induced AR-TIF2 PPI formation; assay type: cell-based; conditions: S1 analogs vs S1–1; S3–15 vs S3–14
# [10] = tested on: HEK 293 cells; experiment: M2H viability counter screen; assay type: cell-based; conditions: read-out: M2H viability CS GI50; cytotoxicity counter screen
GI50 [1] [µM],GI50 [2] [µM],AR-TIF2 PPIB Cell Loss [3] [µM],IC50 [4] [µM],GI50 [5] [µM],GI50 [6] [µM],GI50 [8] [µM],Reduction in relative potency versus parent hit in AR-TIF2 PPIB assay formats [9] [fold],"GI50 ([7]; read-out: GI50 in any PC cell line, all 5 PC cell lines, ≥50% growth inhibition not achieved at ≤100 μM) [µM]",SMILES,Cytotoxicity in AR positive relative to AR negative PC cell lines [7],GI50 [10] [µM]
5.01,12.2,>100,32.5,22.9,20.7,5.12,,,Cc1ccccc1-c1cc(O)c2c(c1)CN(c1cc(N)ncn1)CCO2,equipotent against all 5 PC cell lines,
> 100,> 100,>100,37,> 100,> 100,> 100,4,> 100,COc1cc(-c2ccc(C)s2)cc2c1OCCN(c1nc(C(N)=O)cs1)C2,,> 100
